Assay in all cases: Ki determination for immobilized VI16742: two consecutive incubations, control beads, ligand concentration and incubation time controls (Tables 7, 8)
Holding throughout (format): binding

Chains of the proteins cited; added tags and fusions are not shown. Lines headed by an entry give the natural chain unless they say otherwise; changes in a name come on top.
UniProt Q96GD4, whole entry: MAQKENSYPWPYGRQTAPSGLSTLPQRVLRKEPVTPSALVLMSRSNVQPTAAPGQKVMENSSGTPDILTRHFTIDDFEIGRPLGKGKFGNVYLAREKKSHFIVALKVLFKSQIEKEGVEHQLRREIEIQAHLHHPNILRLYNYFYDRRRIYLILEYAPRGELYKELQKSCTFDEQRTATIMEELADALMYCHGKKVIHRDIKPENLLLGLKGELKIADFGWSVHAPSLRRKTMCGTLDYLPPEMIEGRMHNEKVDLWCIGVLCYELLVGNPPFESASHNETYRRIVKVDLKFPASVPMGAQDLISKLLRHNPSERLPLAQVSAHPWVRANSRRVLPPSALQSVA
UniProt Q7KZI7: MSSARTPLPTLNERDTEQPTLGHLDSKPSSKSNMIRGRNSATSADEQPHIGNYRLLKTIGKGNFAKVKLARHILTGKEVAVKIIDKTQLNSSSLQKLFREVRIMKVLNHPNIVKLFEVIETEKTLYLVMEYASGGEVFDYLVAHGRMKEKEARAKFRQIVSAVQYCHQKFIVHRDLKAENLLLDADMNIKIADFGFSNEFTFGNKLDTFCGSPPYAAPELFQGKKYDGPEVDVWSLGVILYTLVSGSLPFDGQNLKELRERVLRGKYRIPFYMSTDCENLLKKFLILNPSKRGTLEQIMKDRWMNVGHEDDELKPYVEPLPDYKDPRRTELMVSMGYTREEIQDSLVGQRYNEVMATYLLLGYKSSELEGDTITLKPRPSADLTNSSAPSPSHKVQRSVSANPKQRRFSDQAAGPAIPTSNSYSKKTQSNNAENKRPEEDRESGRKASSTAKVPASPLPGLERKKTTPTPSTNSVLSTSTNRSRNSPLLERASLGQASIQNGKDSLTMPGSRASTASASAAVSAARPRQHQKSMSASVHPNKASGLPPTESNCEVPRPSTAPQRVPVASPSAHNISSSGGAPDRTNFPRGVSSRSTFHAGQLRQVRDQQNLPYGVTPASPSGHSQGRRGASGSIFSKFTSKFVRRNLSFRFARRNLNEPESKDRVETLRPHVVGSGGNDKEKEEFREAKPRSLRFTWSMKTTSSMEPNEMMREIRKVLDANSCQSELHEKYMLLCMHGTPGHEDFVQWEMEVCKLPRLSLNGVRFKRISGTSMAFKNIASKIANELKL
UniProt P50613: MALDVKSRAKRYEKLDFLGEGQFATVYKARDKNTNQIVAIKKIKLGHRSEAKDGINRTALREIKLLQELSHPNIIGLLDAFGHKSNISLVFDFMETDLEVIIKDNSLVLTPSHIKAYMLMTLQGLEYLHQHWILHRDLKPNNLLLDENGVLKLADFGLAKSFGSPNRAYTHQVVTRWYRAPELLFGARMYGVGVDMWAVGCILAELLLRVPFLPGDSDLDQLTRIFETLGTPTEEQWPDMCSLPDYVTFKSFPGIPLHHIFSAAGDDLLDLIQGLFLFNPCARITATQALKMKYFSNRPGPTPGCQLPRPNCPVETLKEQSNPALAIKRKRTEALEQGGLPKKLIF
UniProt P45983: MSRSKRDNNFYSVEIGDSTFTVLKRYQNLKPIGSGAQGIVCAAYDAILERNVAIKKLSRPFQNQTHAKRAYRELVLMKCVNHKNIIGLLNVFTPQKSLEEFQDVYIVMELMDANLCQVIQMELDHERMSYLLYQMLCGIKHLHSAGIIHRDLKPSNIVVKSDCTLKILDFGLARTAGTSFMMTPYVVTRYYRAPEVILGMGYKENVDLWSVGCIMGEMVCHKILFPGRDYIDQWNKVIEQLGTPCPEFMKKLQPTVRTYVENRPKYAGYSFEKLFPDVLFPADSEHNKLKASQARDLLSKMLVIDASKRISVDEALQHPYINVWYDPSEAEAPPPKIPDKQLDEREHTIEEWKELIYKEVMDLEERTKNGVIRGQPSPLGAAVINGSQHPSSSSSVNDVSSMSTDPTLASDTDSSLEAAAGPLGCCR
UniProt Q8N5S9: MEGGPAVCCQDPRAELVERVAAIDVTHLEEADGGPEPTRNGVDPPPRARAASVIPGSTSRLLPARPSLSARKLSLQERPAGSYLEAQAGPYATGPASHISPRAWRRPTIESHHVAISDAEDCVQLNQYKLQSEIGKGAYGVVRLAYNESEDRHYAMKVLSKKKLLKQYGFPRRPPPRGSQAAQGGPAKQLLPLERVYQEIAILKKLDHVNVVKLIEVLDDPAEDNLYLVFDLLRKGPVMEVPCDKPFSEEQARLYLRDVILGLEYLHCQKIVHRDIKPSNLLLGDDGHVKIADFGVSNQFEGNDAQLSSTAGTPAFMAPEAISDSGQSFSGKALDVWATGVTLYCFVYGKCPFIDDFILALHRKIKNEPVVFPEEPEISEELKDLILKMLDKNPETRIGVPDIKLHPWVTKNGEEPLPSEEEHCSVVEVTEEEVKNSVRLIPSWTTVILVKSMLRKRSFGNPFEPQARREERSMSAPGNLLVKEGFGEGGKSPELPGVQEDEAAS
UniProt P00519, whole entry: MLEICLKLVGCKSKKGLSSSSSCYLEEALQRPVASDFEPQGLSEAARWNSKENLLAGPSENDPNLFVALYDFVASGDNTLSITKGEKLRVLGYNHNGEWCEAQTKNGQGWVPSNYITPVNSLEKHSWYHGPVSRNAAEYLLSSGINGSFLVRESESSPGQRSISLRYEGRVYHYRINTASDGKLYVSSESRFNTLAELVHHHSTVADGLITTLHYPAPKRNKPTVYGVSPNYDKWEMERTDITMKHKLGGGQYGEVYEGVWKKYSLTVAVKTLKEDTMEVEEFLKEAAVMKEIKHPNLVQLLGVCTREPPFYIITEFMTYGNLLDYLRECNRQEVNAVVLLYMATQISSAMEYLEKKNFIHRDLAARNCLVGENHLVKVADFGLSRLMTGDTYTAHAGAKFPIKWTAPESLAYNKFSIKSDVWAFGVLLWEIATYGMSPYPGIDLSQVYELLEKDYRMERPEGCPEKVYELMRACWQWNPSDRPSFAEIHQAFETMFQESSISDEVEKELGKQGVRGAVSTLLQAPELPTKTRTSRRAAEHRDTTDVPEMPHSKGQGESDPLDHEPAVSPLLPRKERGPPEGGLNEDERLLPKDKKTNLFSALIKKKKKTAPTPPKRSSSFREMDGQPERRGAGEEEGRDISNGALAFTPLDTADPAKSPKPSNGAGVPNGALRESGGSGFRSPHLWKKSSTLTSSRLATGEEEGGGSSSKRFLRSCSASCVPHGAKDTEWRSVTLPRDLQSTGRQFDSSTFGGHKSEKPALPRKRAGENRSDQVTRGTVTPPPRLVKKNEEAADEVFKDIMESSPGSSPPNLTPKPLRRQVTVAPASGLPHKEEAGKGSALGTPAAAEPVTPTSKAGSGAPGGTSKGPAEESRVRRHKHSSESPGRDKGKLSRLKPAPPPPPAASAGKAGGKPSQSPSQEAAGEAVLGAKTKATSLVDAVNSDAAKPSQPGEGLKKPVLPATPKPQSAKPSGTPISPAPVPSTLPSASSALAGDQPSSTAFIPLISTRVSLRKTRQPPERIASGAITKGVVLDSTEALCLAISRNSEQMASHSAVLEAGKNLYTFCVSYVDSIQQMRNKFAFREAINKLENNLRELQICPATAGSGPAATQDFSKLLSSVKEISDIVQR
UniProt P07948: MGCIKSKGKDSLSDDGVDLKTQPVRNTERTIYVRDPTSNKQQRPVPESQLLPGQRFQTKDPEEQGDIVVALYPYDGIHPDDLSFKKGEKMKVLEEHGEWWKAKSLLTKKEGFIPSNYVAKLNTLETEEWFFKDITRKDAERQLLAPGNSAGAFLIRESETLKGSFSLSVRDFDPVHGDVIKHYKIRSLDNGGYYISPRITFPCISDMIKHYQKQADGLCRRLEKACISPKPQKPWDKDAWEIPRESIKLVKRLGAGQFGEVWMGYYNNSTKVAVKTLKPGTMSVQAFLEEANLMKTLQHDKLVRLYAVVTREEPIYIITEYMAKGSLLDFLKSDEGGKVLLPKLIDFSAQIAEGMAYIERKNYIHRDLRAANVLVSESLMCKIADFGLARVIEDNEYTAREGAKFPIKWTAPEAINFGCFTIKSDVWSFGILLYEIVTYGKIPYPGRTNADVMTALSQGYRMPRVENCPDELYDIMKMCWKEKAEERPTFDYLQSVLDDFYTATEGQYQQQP
UniProt Q00536: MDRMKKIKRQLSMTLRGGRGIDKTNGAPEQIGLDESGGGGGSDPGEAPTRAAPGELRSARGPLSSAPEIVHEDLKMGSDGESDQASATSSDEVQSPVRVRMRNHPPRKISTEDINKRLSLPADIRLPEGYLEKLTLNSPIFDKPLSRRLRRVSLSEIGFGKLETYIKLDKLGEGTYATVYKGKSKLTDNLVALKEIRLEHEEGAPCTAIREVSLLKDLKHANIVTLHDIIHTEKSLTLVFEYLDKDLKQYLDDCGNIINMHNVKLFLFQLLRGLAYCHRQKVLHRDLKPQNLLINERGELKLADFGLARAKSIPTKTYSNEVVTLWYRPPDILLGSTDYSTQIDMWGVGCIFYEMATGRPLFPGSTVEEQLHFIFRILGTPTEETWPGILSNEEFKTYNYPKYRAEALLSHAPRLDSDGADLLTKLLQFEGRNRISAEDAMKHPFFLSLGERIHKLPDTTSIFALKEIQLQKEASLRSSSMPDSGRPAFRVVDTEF
UniProt P49840: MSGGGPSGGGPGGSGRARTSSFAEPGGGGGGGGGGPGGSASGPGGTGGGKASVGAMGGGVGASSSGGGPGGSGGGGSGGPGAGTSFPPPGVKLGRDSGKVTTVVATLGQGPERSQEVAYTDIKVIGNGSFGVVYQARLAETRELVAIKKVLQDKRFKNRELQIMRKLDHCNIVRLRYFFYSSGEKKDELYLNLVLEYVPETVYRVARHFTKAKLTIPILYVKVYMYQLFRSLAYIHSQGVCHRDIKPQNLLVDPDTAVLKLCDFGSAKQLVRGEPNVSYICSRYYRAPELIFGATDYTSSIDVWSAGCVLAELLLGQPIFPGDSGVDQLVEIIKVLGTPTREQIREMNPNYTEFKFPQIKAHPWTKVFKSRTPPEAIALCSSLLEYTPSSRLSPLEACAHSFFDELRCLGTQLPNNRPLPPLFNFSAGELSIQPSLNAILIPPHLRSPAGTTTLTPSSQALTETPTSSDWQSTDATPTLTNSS

Experiment [1] has as its target T1, cellular target proteins in HeLa cell lysate (Homo sapiens, UniProt Q6PHR2).
T1 sequence (Q6PHR2 1-472): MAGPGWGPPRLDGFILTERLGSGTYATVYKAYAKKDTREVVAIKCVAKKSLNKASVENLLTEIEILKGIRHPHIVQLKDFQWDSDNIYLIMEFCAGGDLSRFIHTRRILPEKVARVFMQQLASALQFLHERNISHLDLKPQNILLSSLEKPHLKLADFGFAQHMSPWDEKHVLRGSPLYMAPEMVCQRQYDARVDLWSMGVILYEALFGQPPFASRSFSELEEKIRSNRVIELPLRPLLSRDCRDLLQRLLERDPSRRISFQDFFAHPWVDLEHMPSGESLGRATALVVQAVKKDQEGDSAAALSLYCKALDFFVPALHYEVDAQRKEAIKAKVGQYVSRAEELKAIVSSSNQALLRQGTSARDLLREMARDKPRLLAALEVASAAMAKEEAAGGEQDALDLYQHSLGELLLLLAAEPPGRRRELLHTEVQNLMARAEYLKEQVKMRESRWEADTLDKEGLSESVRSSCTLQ
To be noted: Ki (VI16742), ULK3 IPI00411818.

In experiment [2] the target is cellular target proteins in HeLa cell lysate (Homo sapiens, UniProt Q96GD4). The settings on record: Ki (VI16742), AurB (AURKB) IPI00176642.
In experiment [3] the target is T2, cellular target proteins in HeLa cell lysate (Homo sapiens, UniProt O43741).
T2 sequence (O43741 1-272): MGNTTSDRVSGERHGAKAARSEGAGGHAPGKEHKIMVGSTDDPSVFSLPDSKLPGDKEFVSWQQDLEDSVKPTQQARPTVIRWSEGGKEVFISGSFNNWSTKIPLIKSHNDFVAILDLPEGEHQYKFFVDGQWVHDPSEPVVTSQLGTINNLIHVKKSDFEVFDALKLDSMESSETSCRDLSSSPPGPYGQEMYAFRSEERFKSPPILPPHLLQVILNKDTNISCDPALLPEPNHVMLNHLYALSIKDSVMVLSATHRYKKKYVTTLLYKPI
The settings on record: Ki (VI16742), PRKAB2 IPI00013905.

In experiment [4] the target is cellular target proteins in HeLa cell lysate (Homo sapiens, UniProt Q7KZI7). To be noted: Ki (VI16742), MARK2 IPI00555838.
The target in experiment [5] is cellular target proteins in HeLa cell lysate (Homo sapiens, UniProt P50613). To be noted: Ki (VI16742), CDK7 IPI00000685.
The target of experiment [6] is cellular target proteins in HeLa cell lysate (Homo sapiens, UniProt P45983). To be noted: Ki (VI16742), JNK1 (MAPK8) IPI00220305.
The target in experiment [7] is cellular target proteins in HeLa cell lysate (Homo sapiens, UniProt Q8N5S9). To be noted: Ki (VI16742), CaMKK1 (CAMKK1) IPI00657696.
The target of experiment [8] is cellular target proteins in HeLa cell lysate (Homo sapiens, UniProt P00519). The settings on record: Ki (VI16742), ABL (ABL1) IPI00221171.
Experiment [9] concerns the target cellular target proteins in HeLa cell lysate (Homo sapiens, UniProt P07948). The settings on record: Ki (VI16742), LYN IPI00872474.
Experiment [10] deals with cellular target proteins in HeLa cell lysate (Homo sapiens, UniProt Q00536). The settings on record: Ki (VI16742), PCTAIRE1 (PCTK1) IPI00549858.
In experiment [11] the target is cellular target proteins in HeLa cell lysate (Homo sapiens, UniProt P49840). To be noted: Ki (VI16742), GSK3A IPI00292228.

Molecules are shown by their SMILES.

`CC(C)n1c(=O)ccc2cnc(Nc3ccc(OCCN)cc3)nc21` [V16742]: the Ki was 3.48 µM in [1]; 8.59 µM in experiment [2]; 18.1 µM in experiment [3]; 17 µM in [4]; 46.2 µM in experiment [5]; 3.01 µM in [6]. Moreover, the Ki in experiment [7] was 41.2 µM; in experiment [8] it was 72.6 µM; in experiment [9] it was 45.4 µM; in experiment [10] it was 5.99 µM; in experiment [11], 12.5 µM.

By Ki is commonly meant the equilibrium dissociation constant of an inhibitor or competing ligand from its target.
